# AlphaSeq binding of Ab-14 light chain variants to a spike HR2 peptide

All variants were tested on one target, the spike HR2 peptide PDVDLGDISGINAS (SARS-CoV-2).

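The starting antibody came from a phage panning campaign against this peptide. The variants were designed computationally from a first round of random CDR variants and then made and measured. Their group label is 14L_GP_Gibbs (GP: Gaussian process model; Gibbs: Gibbs sampling; a sequence that several methods proposed may carry one label only). Affinity was read by AlphaSeq, a pooled yeast mating assay with surface-displayed partners. The frequency of each diploid, read from paired DNA barcodes, reflects how well the two displayed proteins bind. Read counts were normalised to the haploid input and turned into Kd by a linear fit to BCL2-family pairs of known affinity, for each replicate. The assay was run in six technical replicates.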

Parent: Ab-14, a human scFv built as VH, three GGGGS repeats, VL. Only the CDRs of the light chain vary.
VH: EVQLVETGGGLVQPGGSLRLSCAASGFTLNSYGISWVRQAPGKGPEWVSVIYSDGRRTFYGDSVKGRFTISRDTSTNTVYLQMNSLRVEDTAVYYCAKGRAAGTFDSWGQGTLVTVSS
VL: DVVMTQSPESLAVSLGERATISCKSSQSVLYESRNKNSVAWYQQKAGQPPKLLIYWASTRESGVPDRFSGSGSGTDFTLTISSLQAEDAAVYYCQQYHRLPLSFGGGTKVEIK

Variants are written as CDR1, CDR2 and CDR3 of the light chain (limits as in the source). Parent: KSSQSVLYESRNKNSVA, WASTRES, QQYHRLPLS.
Values are log10 of the apparent Kd in nM; lower means stronger binding.
"ND" marks a missing value. The strain was present, yet no cells mated with the target were sequenced in that replicate, which points to weak or no binding.
A sequence measured in both rounds can read differently, since the two assays cover different ranges.

CDR-L1 | CDR-L2 | CDR-L3 | log10 Kd (nM) by replicate | signal with controls
KAQQSELYGERNSNSVA | EASTRES | QQYHRLPLS | 0.27 / 0.22 / 0.25 / -0.31 / 0.18 / 0.24 | 0 of 18
KLSGSDLYESRNCNNVA | NASQREV | QQYHRLPLS | 0.22 / 0.06 / -0.04 / -0.04 / -0.04 / 0.30 | 2 of 18 (2.41)
KLQSLELYESRWKNSVA | SASTRES | QQYHRLPLS | 0.81 / 0.83 / 0.65 / 0.45 / 0.41 / 0.98 | 1 of 18 (2.20)
KLEFLDLYESRNKNSVA | EASTRES | QQYHRLPLS | 0.14 / -0.09 / -0.12 / -0.26 / -0.21 / 0.02 | 1 of 18 (3.10)
KLSPSVMYESRMKNSVA | MASTRYM | QQYHRLPLS | 0.56 / 0.13 / 0.61 / 0.31 / 0.70 / 1.14 | 0 of 18
AVSFSHLYESRNKNSVA | EASTREQ | QQYHRLPLS | 0.54 / 0.13 / 0.24 / 0.12 / 0.23 / 0.28 | 0 of 18
KVVQSHDYEQRNKNSVA | HASTRCS | QDYHRLPLS | 0.93 / 0.39 / 0.50 / 0.36 / 0.52 / 0.59 | 1 of 18 (3.29)
KLQQSWEYESRNKNNVA | EGSQREV | QQYHRLPLS | -0.10 / -0.25 / -0.23 / -0.16 / -0.25 / -0.14 | 0 of 18
KSSWSVEYEDRASNSVA | NASQRLW | QQYHRLPLS | 0.46 / 0.23 / 0.29 / 0.16 / 0.30 / 0.44 | 2 of 18 (1.75)
KLHQSWLYLSRNHNSVA | NASQRCS | QQYHRLPLS | 0.59 / 0.55 / 0.58 / 0.28 / 0.83 / 0.67 | 1 of 18 (3.14)
KQSPQDLQQSRMKNQVA | DASTRES | QQYHRLPLS | 0.12 / -0.15 / -0.15 / -0.28 / -0.19 / -0.09 | 1 of 18 (2.26)
KVSQSMLGESRNKNSVA | SASTREN | QQYHRLPLS | -0.02 / -0.06 / -0.22 / -0.13 / -0.13 / 0.02 | 1 of 18 (2.38)
KMSQSVPYEERNKNSVA | NASKRES | QQYHRLPLS | 0.34 / 0.65 / 0.01 / 0.97 / -0.13 / -0.02 | 0 of 18
KLSQAWWYESRNKWSVA | NASLREQ | QQYHRLPLS | -0.03 / 0.01 / -0.02 / -0.02 / 0.01 / 0.25 | 0 of 18
KLSQSMEYEDRNSNSVA | HASTREQ | QQYHRLPLM | 0.35 / 0.12 / 0.07 / 0.08 / 0.22 / 0.30 | 1 of 18 (3.68)
KSSGSVMGEDMNKNSVA | DASKRES | QQYHRLPLS | 0.02 / 0.30 / 0.03 / 0.15 / 0.26 / 0.15 | 1 of 18 (1.90)
KLSQSELYESRCKNNVA | AASQRES | QQYHRLPLS | ND / ND / ND / ND / ND / ND | 0 of 18
KIHQSELYEDRNINSVA | SASQRSE | QQYHRLPLS | -0.13 / 0.02 / -0.17 / -0.18 / -0.17 / -0.01 | 0 of 18
KFEQLDGQEDRNKNSVA | NASQRED | QQYHRLPLS | 0.54 / 0.09 / 0.82 / 0.40 / 0.73 / 0.59 | 0 of 18
KLSQLGLYGQRNKMSVA | DASQRED | QQYHRLPLS | -0.32 / -0.33 / -0.33 / -0.61 / -0.49 / -0.13 | 0 of 18
KVMQSVNGLQRAKNSVA | EASTRES | QQYHRLPLS | 0.34 / 0.41 / 0.64 / 0.03 / 0.31 / 0.80 | 1 of 18 (2.11)
KLQQSWEYESRNSNNVA | QASTRCS | QQYHRLPLS | 1.51 / 1.12 / 1.47 / 2.73 / 1.22 / 2.22 | 0 of 18
ILDQSQLYESRNKNSVA | NASTREQ | QQYHRLPLS | 0.00 / -0.22 / -0.25 / -0.37 / -0.34 / -0.05 | 1 of 18 (2.04)
KLPQSWLYESRNSNSVA | HASQRME | QQYHRLPLS | 0.32 / 0.22 / -0.14 / -0.16 / 0.26 / 0.33 | 1 of 18 (3.23)
LSSQSEYYEDANKMSVA | SASQRLS | QQYHRLPLS | 0.96 / 1.10 / 1.27 / 0.59 / 0.77 / 0.91 | 1 of 18 (2.60)
HASQSGLYESRVKNSVA | SASMRES | QQYHRLPLS | 0.96 / 0.54 / 0.69 / 0.40 / 0.74 / 0.69 | 1 of 18 (1.55)
KVSQSMLGESRNFNSVA | SASTREN | QQYHRLPLS | 0.66 / 0.37 / 0.24 / 0.32 / 0.44 / 0.47 | 3 of 18 (3.54)
KVSQEQDYQSRNKNSVA | DASQREE | QQYHRLPLS | 0.00 / -0.03 / -0.34 / -0.20 / -0.33 / -0.12 | 3 of 18 (2.25)
KFQGMVMMGDRNKNSVA | WASTRLS | QQYHRLPLS | ND / ND / ND / 2.17 / ND / 2.76 | 1 of 18 (1.49)
KLSGSMSYEWRNCNNVA | NASQRES | QQYHRLPLS | 0.43 / 0.44 / 0.53 / 0.29 / 0.69 / 0.31 | 1 of 18 (2.02)
KLVMSELYESRQKNSVA | NASQREM | QQYHRLPLS | -0.09 / -0.38 / -0.76 / -0.39 / -0.47 / -0.44 | 1 of 18 (1.26)
KSSQSVLMESMNKNSVA | HASQRIW | QQYHRLPLS | 0.80 / 0.96 / 0.98 / 1.03 / 0.79 / 1.14 | 1 of 18 (4.54)
KDSQSVPYEDRNLNNVA | HASTRES | QQYHRLPLM | 0.09 / -0.06 / -0.33 / -0.27 / -0.34 / -0.23 | 2 of 18 (3.45)
KLSQSELYESRQFNSVA | HASQRNL | QQYHRLPLS | 0.14 / 0.40 / 0.45 / 0.14 / 0.30 / 0.62 | 1 of 18 (2.28)

The authors averaged sequences with at least three values out of six and counted those with two or fewer as poor binders.
The parent sequence was in this pool as ten entries: three were never detected, three once, and four in most replicates, with averages from 0.34 to 2.37.
As a blank, each scFv also met three strains without target: over all light chain designs, 4% of these pairings were detected, typically at 2.64 and seldom below 1.59. For each scFv, signals with the empty controls are counted beside the result, with their mean in brackets.

Reference: Li et al. 2023, doi:10.1038/s41467-023-39022-2. File: FLAb, binding data.